The values that follow are results of earlier work, collected in patent US20090185973A1, “METHODS, COMPOSITIONS, UNIT DOSAGE FORMS, AND KITS FOR PHARMACOLOGIC STRESS TESTING WITH REDUCED SIDE EFFECTS” (ADENOBIO N.V., priority 2008, published 2009).

Molecules are shown by their SMILES.

The target in the series is A2a receptor (Homo sapiens, UniProt P29274). Conditions: in vivo; cited from earlier work.

As to `CNC(=O)c1cnn(-c2nc(N)c3ncn([C@@H]4O[C@H](CO)[C@@H](O)[C@H]4O)c3n2)c1` [Regadenoson, regadenoson], the “Side effects as compared to Adenoscan (adenosine)” value is “increase in dyspnea, headache and gastrointestinal disorders”.
